Experimental data taken from patent publication US11745001B2, “Therapeutic bandage” (University of Connecticut, priority 2020, dated 2023).

Experiment: kinetics of drug release from microneedles, epifluorescence microscopy with two fluorescent dyes
Description: FIG. 4A illustrates a microneedle base 44 showing the hollow channel 50. FIG. 4B illustrates the microneedle base 44 coupled to the rapid-dissolving tips 40, which include tattoo ink. In one embodiment, the therapeutic bandage 10 may be producing the microneedles 26 and then coupling the microneedles 26 to the bandage matrix 30. In some embodiments, the microneedles 26 may be integrally formed with a portion of the bandage matrix 30. The microneedles are produced by forming the base 44, with the microchannel 50, and loading the base […] with the second immunomodulatory compound. The tip 40 is then produced and loaded with the first immunomodulatory compound. The tip 40 is then coupled to the base 44 to seal the microchannel […]. To test the mechanical strength of the microneedles 26, the tips 40 were loaded with insoluble tattoo ink (FIG. 4B). The microneedles 26 were then applied to cultured human skin explants using a 1 Newton application force. […] FIG. 4E illustrates a longitudinal section of explanted human skin showing spacing of microneedle deposition in the dermal layer. The kinetics of drug release were then measured using epifluorescence microscopy and two fluorescent dyes.

BODIPY-vancomycin
time in which the tips dissolved and delivered the dye into the dermal layer of skin (dye loaded in rapid-dissolving tips 40, explanted human skin, FIG. 5 at A): ≤ 30 min | detectability of burst release from the tip (one hour after bandage application): no longer detectable
